{"sequences": {"note": "Amino acid sequences for entries named in this document (tags omitted).", "UniProt Q8R431, whole entry": "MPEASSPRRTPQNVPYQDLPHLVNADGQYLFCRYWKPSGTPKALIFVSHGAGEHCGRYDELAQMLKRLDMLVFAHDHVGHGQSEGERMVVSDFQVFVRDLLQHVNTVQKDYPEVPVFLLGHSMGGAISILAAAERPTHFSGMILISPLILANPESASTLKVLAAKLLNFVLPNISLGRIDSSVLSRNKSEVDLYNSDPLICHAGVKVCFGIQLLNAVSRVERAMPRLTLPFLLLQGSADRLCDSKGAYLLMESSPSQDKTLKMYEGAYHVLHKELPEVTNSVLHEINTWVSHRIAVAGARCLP"}, "source": "paper PMC7875603", "about": "(Journal of medicinal chemistry, 2019)", "target": "monoacylglycerol lipase (MAGL) (Rattus norvegicus, UniProt Q8R431)", "assay": "cell-based", "conditions": "read-out: % reduction of bound activity at 10 μM"}
{"smiles": "O=C(OC(C(F)(F)F)C(F)(F)F)N1CCC(C(O)(c2ccc3c(c2)OCO3)c2ccc3c(c2)OCO3)CC1", "note": "[KML29]", "values": [{"measurement": "inhibition at 10 µM", "result": "35 to 49", "unit": "%"}]}
